Earlier results as cited in patent US9149465B2, “Isoxazolines as inhibitors of fatty acid amide hydrolase” (Infinity Pharmaceuticals, Inc., priority 2009, dated 2015).

Chains of the proteins cited; added tags and fusions are not shown. Residues count along the entry.
UniProt P97612, 30-579 limits assumed: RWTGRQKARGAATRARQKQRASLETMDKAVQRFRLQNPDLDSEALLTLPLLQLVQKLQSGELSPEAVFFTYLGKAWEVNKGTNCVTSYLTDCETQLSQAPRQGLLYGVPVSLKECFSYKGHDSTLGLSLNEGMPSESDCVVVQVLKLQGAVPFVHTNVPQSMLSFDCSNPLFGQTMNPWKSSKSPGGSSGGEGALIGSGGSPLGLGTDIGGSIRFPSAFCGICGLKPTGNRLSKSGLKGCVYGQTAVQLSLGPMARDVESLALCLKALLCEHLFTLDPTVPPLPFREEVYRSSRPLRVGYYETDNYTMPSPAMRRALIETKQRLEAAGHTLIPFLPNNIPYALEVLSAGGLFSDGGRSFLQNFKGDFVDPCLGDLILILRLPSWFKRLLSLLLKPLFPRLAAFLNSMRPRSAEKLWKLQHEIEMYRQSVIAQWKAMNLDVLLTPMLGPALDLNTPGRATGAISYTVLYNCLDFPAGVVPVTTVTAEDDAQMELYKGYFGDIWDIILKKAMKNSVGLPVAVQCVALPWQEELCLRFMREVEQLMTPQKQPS

Target: rat FAAH protein (Rattus norvegicus, UniProt P97612)
Settings: Bracey et al., Science (2002); cited from earlier work

CCCCC/C=C\C/C=C\C/C=C\C/C=C\CCCCOP(=O)(F)OOC (stereo not shown)
covalent binding to FAAH in crystal structure: covalently bound to the side chain of Ser-241
